## AlphaSeq binding of Ab-14 light chain variants to a spike HR2 peptide

Data: MIT Lincoln Laboratory AlphaSeq set, Li et al. 2023, doi:10.1038/s41467-023-39022-2, as distributed in FLAb.

Target peptide (SARS-CoV-2 spike, HR2 region): PDVDLGDISGINAS

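Phage display of a naive human antibody library on the peptide gave the parent. This is the validation round: designs drawn from the data on random variants, tested in the same kind of assay. Group labels follow the data file (Ctrl: baseline library sampled from a position-specific scoring matrix, with some repeated check sequences; Rand: our label for a block that the file lists under HC and that is probably the random mutants of the ten best first-round binders; En: ensemble of fine-tuned language models; GP: Gaussian process model; GPLM: also part of the Gaussian process libraries; HC: hill climbing; Gen: genetic algorithm; Gibbs: Gibbs sampling; a sequence that several methods proposed may carry one label only). In AlphaSeq, yeast of one mating type display the scFv and yeast of the other type display the target. Pairs that bind mate more often; barcode pairs of the diploids are counted by sequencing. Read counts were normalised to the haploid input and turned into Kd by a linear fit to BCL2-family pairs of known affinity, for each replicate. There are six technical replicates.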

Ab-14 is the parent antibody, in scFv form: VH, then three GGGGS repeats, then VL. The heavy chain is unchanged in all variants.
VH: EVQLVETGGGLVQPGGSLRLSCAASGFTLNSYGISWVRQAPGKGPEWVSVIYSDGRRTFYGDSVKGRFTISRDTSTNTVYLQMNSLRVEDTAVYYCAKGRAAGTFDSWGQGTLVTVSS
VL: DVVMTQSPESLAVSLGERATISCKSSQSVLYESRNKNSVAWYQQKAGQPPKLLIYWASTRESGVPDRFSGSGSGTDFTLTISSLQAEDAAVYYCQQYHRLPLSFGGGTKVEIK

The parent's light chain CDRs are KSSQSVLYESRNKNSVA, WASTRES, QQYHRLPLS; each variant's own CDRs replace them letter for letter.
Affinities are written as log10 Kd with Kd in nM; a lower number is a better binder.
Replicates are averaged; those with no signal do not enter the mean.
Where no diploid with the target was found in that replicate, the entry reads "nd": below detection, most likely a poor binder, though not proof of it.
Three control strains display no target. For all light chain designs, 4% of the pairings with them gave a signal, with a median of 2.64 and one signal in twenty below 1.59, so weak values seen in few replicates may be background.

log10 Kd, replicates | log10 Kd (nM), mean | CDR-L1 | CDR-L2 | CDR-L3 | group
1.66 / 1.45 / 2.30 / 2.24 / nd / 1.17 | 1.77 | KSSQSVLYESRNKNSVA | WATTRES | QQYHRLPLS | Ctrl
0.49 / 0.13 / 0.10 / 0.24 / 0.07 / 0.36 | 0.23 | KIGGVTNGISRLKNSVA | EQSTRED | QQYNRLPLS | En_HC
0.13 / 0.16 / 0.23 / -0.19 / 0.17 / 0.15 | 0.11 | TMNMELIYGVPMMNNVA | AGSQKLA | QQYYRLPLS | En_Gibbs
1.31 / 1.38 / 0.83 / 1.95 / 1.74 / 1.90 | 1.52 | KLSSITGHMSMSKNNVA | EMVTREN | QQYNRLPLS | En_Gen
nd / nd / nd / nd / nd / nd | nd | RSSQSVLYESRNKNSVA | WASTRES | QDYHRLPFS | Ctrl
0.34 / 0.39 / 0.12 / 0.04 / 0.11 / 0.26 | 0.21 | KLLQSVLYESRNKNSVA | HASTRED | QQYHRLPMS | GP_HC
0.11 / -0.08 / -0.07 / -0.12 / -0.20 / 0.12 | -0.04 | KLPQSVLYESRNKNAVA | HASTRES | QQYHRLPLS | GP_Gen
0.84 / 0.66 / 0.63 / 0.56 / 1.28 / 1.02 | 0.83 | KSSQSVLYEERNKNSVA | HASTRES | QQYHRLPLS | Ctrl
0.58 / 0.61 / 0.26 / 0.17 / 0.41 / 0.77 | 0.47 | KMQGSVMMLSRNCNSVA | QASTREQ | QQYHRLPLS | GP_Gibbs
nd / 1.87 / 1.75 / 1.54 / 1.40 / 2.18 | 1.75 | KLYYDAAERVMDTENIA | EKTISYQ | QQYHRLPLS | En_Gibbs
1.40 / nd / nd / nd / nd / nd | 1.40 | KSSQGVLYESRNKNSVA | EASTRES | QQYHRLPNS | Ctrl
0.51 / 1.05 / 0.29 / 0.18 / 0.14 / 0.37 | 0.42 | HVHMEMAEEKEIRYNIA | DASMRYA | QQYVRLPLG | En_Gibbs
1.36 / 0.52 / 0.81 / 0.08 / 1.13 / 0.45 | 0.72 | TIGQMFNGESRHRNSVA | QASTRES | QSYDRLPLS | En_HC
2.97 / nd / 2.19 / 2.09 / 1.89 / 2.37 | 2.30 | KSMKKVLMESENKNSIA | WASTRES | QQYHRLPLS | Ctrl
1.10 / 0.61 / 0.37 / 0.56 / 1.11 / 0.98 | 0.79 | SIQFFIENDAEWGDSIA | DVSATTA | QQYHRLPLA | En_Gibbs
1.14 / 1.04 / 0.66 / 0.85 / 0.99 / 0.97 | 0.94 | KVSQSVLYESENSNSVA | WASTRAK | QQYHRLPFS | Ctrl
2.18 / 1.04 / nd / 1.88 / 1.04 / 1.55 | 1.54 | KSSQKLPYESRNWNSVA | HASTRES | QQDHRLPLS | Ctrl
0.44 / 0.88 / -0.26 / 0.25 / -0.23 / -0.09 | 0.16 | KSEQGVLYESRNKNSVA | GASTRES | QQYHRLPLS | GPLM_HC
nd / nd / nd / nd / nd / nd | nd | MLSEVLHMLGVQKNAIA | DLVLRAN | QQYHRLPLM | En_Gen
0.94 / 0.69 / 0.78 / 0.52 / 0.47 / 0.88 | 0.71 | NISHFMDTTAKHNNNVA | EMEMREK | QQYHHLPLS | En_Gen
1.10 / 0.36 / 0.83 / 1.00 / 1.89 / 0.31 | 0.92 | KQSQSGLYESRNKPSVA | DASTRES | QMYHKLPLM | Rand
0.16 / 0.17 / 0.11 / 0.13 / 0.04 / 0.31 | 0.15 | KAQLDHQGQPKNHNSIA | EGISRTT | QQYFRLPLM | En_Gibbs
0.82 / 0.91 / 0.42 / 0.61 / 0.72 / 1.08 | 0.76 | MFSQLTYTGSFTRNAVA | QASTREN | QQYHHLPLS | En_HC
-0.06 / 0.24 / -0.18 / -0.25 / -0.19 / -0.05 | -0.08 | KLQQSELYESRNKNSVA | NASTRLD | QQYHRLPLS | GP_Gen
0.09 / -0.25 / -0.10 / -0.03 / -0.28 / -0.08 | -0.11 | KLDQSFLYESRNKNSVA | EASERES | QQYHRLPLY | GP_Gibbs
-0.32 / -0.62 / -0.50 / -0.60 / -0.71 / -0.47 | -0.54 | KLPQSTLYESRNKNSVA | NASTRES | QQYHRLPLS | GP_Gen
0.63 / 0.40 / 0.45 / 0.17 / 0.10 / 0.14 | 0.31 | KFSQSEAYESRTKNSVA | NASTRES | QQYHRLPLS | GP_HC
nd / nd / nd / 2.01 / nd / 1.74 | 1.88 | KSSQSHLYEERNKNSVA | WASTRES | QQYHRLPLS | Ctrl
-0.44 / -0.45 / -0.43 / -0.60 / -0.52 / -0.50 | -0.49 | KLSQSVLYESRNKNNVA | GASTRED | QQYHRLPLS | GP_Gen
0.69 / 0.59 / 0.30 / 0.46 / 0.53 / 0.64 | 0.54 | KISQSVLYASRNSNSVA | GASTRES | QAYHRLPLS | Ctrl
0.25 / 0.58 / 0.31 / 0.52 / 0.55 / 0.24 | 0.41 | KLLQVTENMQLNRNSVA | HMSTRED | QQYHHLPLS | En_HC
0.89 / 0.56 / 0.45 / 0.56 / 0.48 / 0.51 | 0.57 | KLQQGMDYESRNDASVA | AASTRES | QQYHRLPLS | GP_Gibbs

The authors' rule: three or more of the six replicates give a measured affinity, fewer mean a poor binder.
A sequence measured in both rounds can read differently, since the two assays cover different ranges.